Test results as given in patent publication US9682960B2 (priority 2013, dated 2017).
Where two headings read alike, the source gives them in different places.

Test system: castrated (CX) immature male rats bearing a DHT implant
Conditions: 7 days; for CX + DHT Antagonistic activity % Inhibition Bulbo: bulbocavernosus muscles weight; for CX + DHT Antagonistic activity % Inhibition SV: seminal vesicles weight; for CX + DHT Antagonistic activity % Inhibition Prostate: ventral prostate weight
[1] = 0.5 mg/rat/po, listed as flutamide

Compound	CX + DHT Antagonistic activity % Inhibition Bulbo (0.5 mg/rat/po)	CX + DHT Antagonistic activity % Inhibition SV (0.5 mg/rat/po)	CX + DHT Antagonistic activity % Inhibition Prostate (0.5 mg/rat/po)	CX + DHT Antagonistic activity % Inhibition Bulbo (0.1 mg/rat po)	CX + DHT Antagonistic activity % Inhibition SV (0.1 mg/rat po)	CX + DHT Antagonistic activity % Inhibition Prostate (0.1 mg/rat/po)	CX + DHT Antagonistic activity % Inhibition SV [1] [%]	CX + DHT Antagonistic activity % Inhibition Prostate [1] [%]
Cc1c(N2C(=O)N(CCCOc3ccc(-c4cc[n+]([O-])cc4)c(Cl)c3)C(C)(C)C2=O)ccc(C#N)c1Cl [EM-9291]	−45%	56%	42%	–	–	–	–	–
Cc1c(N2C(=O)N(CCCOc3ccc(-c4ccncc4)cc3F)C(C)(C)C2=O)ccc(C#N)c1Cl [EM-9297]	–	–	–	−57 ± 2 (n = 2, 0.1 mg/rat) %	37 ± 7 (n = 2, 0.1 mg/rat) %	31 ± 11 (n = 2, 0.1 mg/rat) %	–	–
Cc1c(N2C(=O)N(CCCOc3ccc(-c4ccncc4)cc3)C(C)(C)C2=O)ccc(C#N)c1Cl [EM-9300]	–	–	–	−11 (0.1 mg/rat) %	21 (0.1 mg/rat) %	13 (0.1 mg/rat) %	–	–
Cc1c(N2C(=O)N(CCCOc3ccc(-c4cc[n+]([O-])cc4)cc3F)C(C)(C)C2=O)ccc(C#N)c1Cl [EM-9301]	–	–	–	−19 ± 13 (n = 2, 0.1 mg/rat) %	32 ± 4 (n = 2, 0.1 mg/rat) %	28 ± 4 (n = 2, 0.1 mg/rat) %	–	–
Cc1c(N2C(=O)N(CCCOc3ccc4ccc[n+]([O-])c4c3)C(C)(C)C2=O)ccc(C#N)c1Cl [EM-9302]	–	–	–	−16 (0.1 mg/ rat) %	10 (0.1 mg/ rat) %	9 (0.1 mg/ rat) %	–	–
Cc1c(N2C(=O)N(CCCOc3ccc(-c4cc[n+]([O-])cc4)cc3)C(C)(C)C2=O)ccc(C#N)c1Cl [EM-9305]	–	–	–	−45 ± 5 (n = 5, 0.1 mg/rat) %	31 ± 5 (n = 5, 0.1 mg/rat) %	27 ± 3 (n = 5, 0.1 mg/rat) %	–	–
Cc1c(N2C(=O)N(CCCOc3ccc(-c4ccncc4)cc3C(F)(F)F)C(C)(C)C2=O)ccc(C#N)c1Cl [EM-9309]	–	–	–	−53 ± 8 (n = 2, 0.1 mg/rat) %	19 ± 8 (n = 2, 0.1 mg/rat) %	19 ± 12 (n = 2, 0.1 mg/rat) %	–	–
Cc1c(N2C(=O)N(CCCOc3ccc(-c4ccncc4Cl)cc3)C(C)(C)C2=O)ccc(C#N)c1Cl [EM-9310]	–	–	–	−39 ± 25 (n = 2, 0.1 mg/rat) %	37 ± 3 (n = 2, 0.1 mg/rat) %	25 ± 8 (n = 2, 0.1 mg/rat) %	–	–
Cc1c(N2C(=O)N(CCCOc3ccc(-c4ccncc4F)cc3)C(C)(C)C2=O)ccc(C#N)c1Cl [EM-9311]	–	–	–	−41 ± 12 (n = 2, 0.1 mg/rat) %	40 ± 1 (n = 2, 0.1 mg/rat) %	26 ± 13 (n = 2, 0.1 mg/rat) %	–	–
Cc1c(N2C(=O)N(CCCOc3ccc(-c4cc[n+]([O-])cc4Cl)cc3)C(C)(C)C2=O)ccc(C#N)c1Cl [EM-9313]	–	–	–	−31 ± 17 (n = 2, 0.1 mg/rat) %	47 ± 20 (n = 2, 0.1 mg/rat) %	21 ± 8 (n = 2, 0.1 mg/rat) %	–	–
Cc1c(N2C(=O)N(CCCOc3ccc(-c4cc[n+]([O-])cc4F)cc3)C(C)(C)C2=O)ccc(C#N)c1Cl [EM-9318]	–	–	–	−44 ± 2 (n = 2, 0.1 mg/rat) %	51 ± 13 (n = 2, 0.1 mg/rat) %	30 ± 5 (n = 2, 0.1 mg/rat) %	–	–
Cc1c(N2C(=O)N(CCCOc3ccc(-c4cc[n+]([O-])cc4)cc3C(F)(F)F)C(C)(C)C2=O)ccc(C#N)c1Cl [EM-9319]	–	–	–	−59 ± 4 (n = 2, 0.1 mg/rat) %	39 ± 19 (n = 2, 0.1 mg/rat) %	26 ± 3 (n = 2, 0.1 mg/rat) %	–	–
Cc1c(N2C(=O)N(CCCOc3ccc(-c4ccncc4)c(C(F)(F)F)c3)C(C)(C)C2=O)ccc(C#N)c1Cl [EM-9333]	–	–	–	−17 ± 2 (n = 3, 0.1 mg/rat) %	32 ± 3 (n = 3, 0.1 mg/rat) %	29 ± 9 (n = 3, 0.1 mg/rat) %	–	–
Cc1c(N2C(=O)N(CCCOc3ccc(-c4cc[n+]([O-])cc4)c(C(F)(F)F)c3)C(C)(C)C2=O)ccc(C#N)c1Cl [EM-9334]	–	–	–	−21 (0.1 mg/rat) %	33 (0.1 mg/rat) %	33 (0.1 mg/rat) %	–	–
Cc1c(N2C(=O)N(CCCCc3ccc(-c4ccncc4)cc3)C(C)(C)C2=O)ccc(C#N)c1Cl [EM-9336]	–	–	–	13 (0.1 mg/rat) %	29 (0.1 mg/rat) %	15 (0.1 mg/rat) %	–	–
Cc1c(N2C(=O)N(CCOc3ccc(-c4ccncc4)cc3)C(C)(C)C2=O)ccc(C#N)c1Cl [EM-9337]	–	–	–	3 (0.1 mg/rat) %	36 (0.1 mg/rat) %	35 (0.1 mg/rat) %	–	–
Cc1c(N2C(=O)N(CCOc3ccc(-c4cc[n+]([O-])cc4)cc3)C(C)(C)C2=O)ccc(C#N)c1Cl [EM-9339]	–	–	–	−11 (0.1 mg/rat) %	30 (0.1 mg/rat) %	30 (0.1 mg/rat) %	–	–
CC1(C)C(=O)N(c2ccc(C#N)c(C(F)(F)F)c2)C(=O)N1c1ccc(-c2ccncc2)cc1 [EM-9340]	89%	90%	58%	–	–	–	–	–
Cc1c(N2C(=O)N(c3ccc(-c4cccnc4)cc3)C(C)(C)C2=O)ccc(C#N)c1C(F)(F)F [EM-9342]	98%	96%	60%	–	–	–	–	–
Cc1c(N2C(=O)N(Cc3ccc(-c4ccncc4)cc3)C(C)(C)C2=O)ccc(C#N)c1Cl [EM-9343]	–	–	–	38 (0.1 mg/rat) %	64 (0.1 mg/rat) %	33 (0.1 mg/rat) %	–	–
Cc1c(N2C(=O)N(c3ccc(-c4ccncc4)cc3)C(C)(C)C2=O)ccc(C#N)c1C(F)(F)F [EM-9344]	–	–	–	56 ± 3 (n = 2, 0.1 mg/ rat) %	65 ± 6 (n = 2, 0.1 mg/ rat) %	35 ± 5 (n = 2, 0.1 mg/ rat) %	–	–
Cc1c(N2C(=O)N(Cc3ccc(-c4cc[n+]([O-])cc4)cc3)C(C)(C)C2=O)ccc(C#N)c1Cl [EM-9345]	–	–	–	47 (0.1 mg/rat) %	56 (0.1 mg/rat) %	31 (0.1 mg/rat) %	–	–
CC(C)C(=O)Nc1ccc([N+](=O)[O-])c(C(F)(F)F)c1 [FLU, flutamide, reference compound]	67.3 ± 1.6 (n = 46) %	82.8 ± 0.7 (n = 131) %	47.9 ± 0.6 (n = 131) %	–	–	–	83	48
